Source: patent US10857112B2, “Small molecule inhibitors of RNA binding motif (RBM) proteins for the treatment of acute cellular injury” (University of Pittsburgh—Of the Commonwealth System of …, priority 2012, dated 2020)

Key:
[1] = system: rat liver microsomes; details: cited from earlier work
[2] = system: primary rat cortical neurons; test: STS injury, neuronal viability and cytotoxicity; details: 250 nM STS co-administered 24 hours
[3] = system: primary rat cortical neurons; test: H2O2 injury, neuronal viability 24 h (CellTiter-Blue); details: 40 μM H2O2 35 min, post-treatment 100 ng/mL

Compound	microsomal lipid peroxidation (thio-barbituric acid reactive products) [1]	cell viability, comparison of neuroprotectants [2]	neuronal death after H2O2 injury [3]
O=C1c2ccccc2C(=O)c2cc(S(=O)(=O)O)ccc21 [AQ2S, anthraquinone-2-sulfonic acid]	inhibited microsomal lipid peroxidation		
IGF-1: Insulin like growth factor-1, well established in vitro and in vivo neuroprotectant		Neither minocycline nor IGF-1 reduced neuronal death	ineffective at rescuing neurons from H2O2 injury
